Consider one compound from ChEMBL document CHEMBL1127788, “Iodinated 2-aminotetralins and 3-amino-1-benzopyrans: ligands for dopamine D2 and D3 receptors” (J Med Chem, 1994).

Sequences of proteins named here, by UniProt entry; tags and fusion partners are left off.
UniProt P35462, whole entry: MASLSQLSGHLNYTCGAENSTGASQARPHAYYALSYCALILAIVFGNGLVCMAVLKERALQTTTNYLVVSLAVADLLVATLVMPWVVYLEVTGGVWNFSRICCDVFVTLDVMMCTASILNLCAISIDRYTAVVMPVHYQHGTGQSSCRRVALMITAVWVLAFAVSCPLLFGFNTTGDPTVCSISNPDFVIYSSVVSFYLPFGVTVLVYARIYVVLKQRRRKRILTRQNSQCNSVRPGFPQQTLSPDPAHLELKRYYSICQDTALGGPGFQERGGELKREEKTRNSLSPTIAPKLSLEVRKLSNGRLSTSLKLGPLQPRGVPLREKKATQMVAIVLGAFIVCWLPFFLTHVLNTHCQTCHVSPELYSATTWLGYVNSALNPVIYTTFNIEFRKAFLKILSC

The assay addresses D(3) dopamine receptor (Homo sapiens, UniProt P35462). As to the kind of experiment: Tested for the inhibitory activity against Dopamine D3 receptor in infected Sf9 cells. It counts as cell-based. Put shortly:
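Membranes from Sf9 cells infected with AcMNPVrD3, in 50 mM Tris pH 7.4 with 120 mM NaCl, protease inhibitors and BSA 1 mg/mL. Displacement of 0.1 nM [125I]-NCQ298 by drug up to 10^-5 M, 30 min at 37 °C. Nonspecific binding: 10 μM (+)butaclamol or 1 μM 7-OH-DPAT. Filtration onto PEI-soaked glass fiber, γ counting, LIGAND nonlinear fit.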

As a reminder, the Ki is a measure of affinity in units of concentration, obtained from inhibition or displacement. The low end stands for tighter binding, the high end for weaker binding. Compound `CCCN(C/C=C/I)C1CCc2ccc(O)cc2C1` (stereo unspecified) returned a Ki of 1.85 nM.
